In patent publication US5824696A, “Medicaments” (SmithKline Beecham Corporation, priority 1993, dated 1998):

Target: T1, angiotensin receptors in human synovium (Homo sapiens, UniProt P30556)
T1 construct: Human knee synovium was collected at surgery from patients with osteoarthritis or rheumatoid arthritis; from tissue; host or cells: human knee synovium cryostat sections (osteoarthritis, rheumatoid arthritis, chondromalacia patellae)
Assay: Inhibition of [125I](Sar1, Ile8)AII binding to human synovium, quantitative receptor autoradiography
Set-up: Binding of [125I](Sar1, Ile8) angiotensin II in the presence of antagonist: unit not given here
Settings: for Binding of [125I](Sar1, Ile8) angiotensin II in the presence of antagonist: 10 μM antagonist; for nHill values: osteoarthritic synovium
Description: Human knee synovium was collected at surgery from patients with osteoarthritis or rheumatoid arthritis undergoing total knee replacement and patients with chondromalacia patellae undergoing carbon fibre resurfacing of articular cartilage. Tissue samples were immediately embedded in Tissue-Tek (Miles Inc., Elkhart, Ind., USA) and frozen to cork mounts in melting isopentane without prior fixation. Specimens were stored at -40° C. until use. […] thick sections were cut in a cryostat and thaw mounted onto Vectabond™ (Vector Laboratories, Peterborough, U.K.) treated slides, air dried and used immediately, or stored at -20° C. with silica gel for up to 5 days until use.
[…] Excess buffer was removed and sections were incubated for 90 minutes with ligand in buffer B (buffer A plus 1% bovine serum albumin). […] Except where stated, incubations were performed at 22° C.
Films were developed in Kodak D9 for 3 minutes at 15° C. […] Synovial structures were identified, where necessary, by comparison of films with tissue sections counterstained with haematoxylin and eosin. Tissue structures (blood vessels, lining cells and regions of subintimal stroma displaying specific binding) were each delineated interactively. Binding was quantified on the 20 blood vessels in each section with the most dense specific binding.
Specific binding was defined as total minus non-specific binding. Characterisation of specific binding was performed on samples of synovium from patients with osteoarthritis.
Kinetic and equilibrium constants were derived from specific binding values by iterative non-linear regression assuming single site models using GraphPAD Inplot4 (San Diego). […] Values for binding inhibition constants (Ki) and HIll coefficients (nHill) were derived by fitting to sigmoid curves.

With CCCCc1nc(Cl)c(CO)n1Cc1ccc(-c2ccccc2-c2nn[nH]n2)cc1 [Losartan] the “Inhibition of specific [125I](Sar1, Ile8)AII binding to each structure” value (10 μM, synovium from patients with osteoarthritis and rheumatoid arthritis) was “completely inhibited”, the “Binding of [125I](Sar1, Ile8) angiotensin II in the presence of antagonist” value (“Binding … of antagonist” for short) (blood vessels, OA, total 7.9, nonspecific 2.4) was 2.9 and the “Binding … of antagonist” value (blood vessels, RA, total 14, nonspecific 2.6) was 2.8. For the same compound, the nHill values (blood vessels) was 0.6, the “Inhibition of binding of [125I](Sar1, Ile8)AII to microvessels, lining cells and stroma” value (inflamed human synovium) was “potently and completely inhibited” and the “Binding … of antagonist” value (lining cells, OA, total 3.6, nonspecific 1.6) was 1.7. For the same compound, the “Binding … of antagonist” value (lining cells, RA, total 5.7, nonspecific 1.7) was 1.8, the nHill values (lining cells) was 0.9 and the “Binding … of antagonist” value (stroma, OA, total 2.4, nonspecific 1.5) was 1.5. The “Binding … of antagonist” value (stroma, RA, total 3.0, nonspecific 1.6) was 1.5 and the nHill values (stroma) was 0.6.
